From US10150760B2, “Compounds for use in preparing heterocyclic triazole agonists of the APJ receptor” (AMGEN INC., priority 2016, dated 2018)

Sequences of proteins named here, by UniProt entry; tags and fusion partners are left off. A change or cut given only in a name is not applied to a line headed by its entry.
UniProt P35414: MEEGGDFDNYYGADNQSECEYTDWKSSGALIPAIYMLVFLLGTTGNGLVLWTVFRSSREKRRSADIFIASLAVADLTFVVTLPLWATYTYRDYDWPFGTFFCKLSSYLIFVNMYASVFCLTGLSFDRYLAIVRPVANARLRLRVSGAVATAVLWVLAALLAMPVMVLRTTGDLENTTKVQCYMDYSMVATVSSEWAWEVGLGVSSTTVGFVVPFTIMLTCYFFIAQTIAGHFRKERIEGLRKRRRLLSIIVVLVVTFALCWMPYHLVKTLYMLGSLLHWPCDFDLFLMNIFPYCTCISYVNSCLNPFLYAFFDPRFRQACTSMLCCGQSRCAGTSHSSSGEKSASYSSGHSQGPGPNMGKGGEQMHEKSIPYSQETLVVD

Columns and labels:
APJ receptor = APJ receptor (Homo sapiens (Human), UniProt P35414); details: Kawamata et al and Hosoya et al; cited from earlier work
[1] = target: human APJ receptor expressed in the CHO cell line (Homo sapiens (Human), UniProt P35414); details: fixed concentration of pyr apelin-13, different concentrations of AngII, human APJ expressed alone

Row | Substance | in vitro affinity to the APJ receptor relative to apelin-36 (APJ receptor) | cooperativity: AngII-induced IP1 accumulation [1]
1 | Apelin-13 | ~3.5 fold | 
2 | pyroglutamated apelin-13 [pyr apelin-13] |  | no positive cooperativity observed
